Experiments:
[1] = target: T1, human serotonin 2C receptor (h-5-HT2C) (Homo sapiens (Human), UniProt P28335); experiment: [3H] mesulergine binding assay to evaluate affinity for human 5-HT2C receptor; details: h-5-HT2C/CHO membrane preparation, read-out: Test Ex. 2: 5-HT2C receptor binding inhibition constant Ki
Procedure: Mesulergine Binding Assay to Evaluate Affinity for Human 5-HT2C Receptor
(§1) Preparation of the Cells and Membrane Preparations
In the experiment, human serotonin 2C receptor (h-5-HT2C) was expressed in CHO cells (h-5-HT2C/CHO). The cells were incubated with UltraCHO Lipuid (trademark) (manufactured by BioWhitakker) containing 1% FBS, 400 μg/mL Geneticin, 100 U/mL penicillin—100 μg/mL streptomycin (all manufactured by Sigma Aldrich) and 250 μg/mL Zeosin (manufactured by InvivoGen) in an incubator containing 5% CO2; detached and collected using 50 mmol/L Tris-HCl (pH=7.4); homogenized with a homogenizer manufactured by Teflon (trademark); and then centrifuged (48,000×g, 25 min, 4° C.). The precipitate was suspended again in the appropriate amount of 50 mmol/L Tris-HCl (to give a membrane preparation), and stored at −80° C. until used. The amount of protein in the membrane preparation was assayed by Dye Reagent Concentrate (manufactured by BIO-RAD) using bovine serum albumin (manufactured by Sigma Aldrich) as a standard.
2-2. 5-HT2C Receptor Binding Assay
A solution of 200 μL in total was prepared by mixing 50 μL of [^3H] mesulergine (manufactured by GE Healthcare) diluted with 50 mmol/L Tris-HCl (pH=7.4) (final concentration: about 2 nmol/L), 149 μL of the h-5-HT2C/CHO membrane preparation (protein amount: 20 μg/well), and 1 μL of the test drug dissolved in dimethylsulfoxide. The solution was reacted at 37° C. for 30 minutes, and then quickly suction-filtered under reduced pressure through a glass fiber filter coated with 1% aq. bovine serum albumin. The glass fiber filter was washed twice with 250 μL of 50 mmol/L Tris-HCl (pH=7.4), placed in a plastic vial containing 4 mL of liquid scintillator (ACS-II, manufactured by Amersham) or Ecoscint A (manufactured by National Diagnostics), and the remaining radioactivity on the filter paper was assayed with a liquid scintillation counter. The non-specific binding of [^3H] mesulergine was defined as a binding amount in the presence of 10 μmol/L SB206553 (manufactured by Sigma Aldrich). The IC50 value was calculated according to Hill analysis, and the binding inhibition constant (Ki) was calculated according to the following formula: Binding inhibition constant (Ki)=IC50/(1+S/Kd) wherein S is a concentration of the added [^3H] mesulergine, and Kd is a binding dissociation constant of [^3H] mesulergine which was calculated from a saturated binding assay using the same cell membrane.

The chains behind the UniProt entries cited, without tags or fusion partners. Where a name states a change or a piece, a line headed by the entry shows the natural chain unless it says otherwise.
UniProt P28335: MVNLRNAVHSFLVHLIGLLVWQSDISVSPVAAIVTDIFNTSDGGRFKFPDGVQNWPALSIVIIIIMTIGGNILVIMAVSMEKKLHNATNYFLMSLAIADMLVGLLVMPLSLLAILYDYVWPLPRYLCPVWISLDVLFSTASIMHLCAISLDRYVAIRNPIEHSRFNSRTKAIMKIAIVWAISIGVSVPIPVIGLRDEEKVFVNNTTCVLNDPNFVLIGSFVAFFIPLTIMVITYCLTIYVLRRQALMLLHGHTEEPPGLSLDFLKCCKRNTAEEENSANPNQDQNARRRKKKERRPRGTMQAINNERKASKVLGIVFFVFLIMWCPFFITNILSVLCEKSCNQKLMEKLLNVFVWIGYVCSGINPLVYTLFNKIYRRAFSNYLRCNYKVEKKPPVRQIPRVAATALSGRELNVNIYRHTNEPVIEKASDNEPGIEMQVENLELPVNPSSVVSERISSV

[2] = target: T1, human serotonin 2C receptor (h-5-HT2C); experiment: 5-HT2C receptor agonistic action assay (FLIPR Calcium 4 Assay kit, h-5-HT2C/CHO cells); type: cell-based; details: test material 10 μmol/L; 100% = 10 μmol/L 5-HT, −100% = 10 μmol/L SB206553; below 0% = inverse agonistic action
Procedure: 3-1. The Cells and Inoculation Thereof
In the experiment, human serotonin 2C receptor (h-5-HT2C) was expressed in CHO cells (h-5-HT2C/CHO). The cells were incubated with UltraCHO Lipuid (trademark) (manufactured by BioWhitakker) containing 1% FBS, 400 μg/mL Geneticin, 100 U/mL penicillin—100 μg/mL streptomycin (all manufactured by Sigma Aldrich) and 250 μg/mL Zeosin (manufactured by InvivoGen) in an incubator containing 5% CO2. On the day before using the cells, they were detached and collected using 250 μg/mL Trypsin solution (manufactured by Nacalai Tesque), then inoculated in a 96 well flat clear bottom black polystyrene TC-treated microplates (manufactured by Corning) at 40000 cells/well/60 μL in an incubator containing 5% CO2 for 16 hours to 24 hours.
3-2. 5-HT2C Receptor Agonistic Action Assay
The 5-HT2C receptor agonistic action was evaluated with FLIPR Calcium 4 Assay kit (manufactured by Molecular Devices). […] Then, the cells were set in FLIPR TETRA (trademark) (manufactured by Molecular Devices), to the cells was added the test material diluted with HHBP buffer, 2.5 mmol/L Probenecid (manufactured by Sigma) (concentration after dilution: 10 μmol/L) at an amount of 20 μL/well, and the fluorescence was measured. Then, in order to evaluate the antagonistic action of the test material, 20 μL/well of 5-HT solution (manufactured by Sigma, final concentration: 0.1 nmol/L) was further added to the cells, and the fluorescence was measured.
The 5-HT2C receptor agonistic action of each test material was calculated as a rate of fluorescence enhancement wherein 100% was defined as a value when the cells were given 10 μmol/L 5-HT. Furthermore, the 5-HT2C receptor inverse agonistic action was calculated as a rate of fluorescence decay wherein −100% was defined as a value when the cells were given 10 μmol/L SB206553 (manufactured by Sigma Aldrich). […]

[3] = target: human serotonin transporter (h-SERT) (Homo sapiens (Human), UniProt P31645); experiment: [3H] citalopram binding assay to evaluate human serotonin reuptake inhibitory action (h-SERT binding assay); details: read-out: Test Ex. 1: h-SERT binding inhibition constant Ki
Procedure: Citalopram Binding Assay to Evaluate Human Serotonin Reuptake Inhibitory Action
as §1
In the experiment, human serotonin transporter (h-SERT) was expressed in CHO cells (h-SERT/CHO). The cells were incubated with F12 containing 10% FCS, 500 μg/mL Geneticin and 100 U/mL penicillin—100 μg/mL streptmycin (all manufactured by Sigma Aldrich) in an incubator containing 5% CO2; detached and collected using a SERT buffer [50 mmol/L Tris-HCl comprising 120 mmol/L NaCl and 5 mmol/L KCl (pH=7.4)]; homogenized with a homogenizer manufactured by Teflon (trademark); and then centrifuged (50,000×g, 30 min, 4° C.). The precipitate was suspended again in the appropriate amount of SERT buffer (to give a membrane preparation), and stored at −80° C. until used. The amount of protein in the membrane preparation was assayed by Dye Reagent Concentrate (manufactured by BIO-RAD) using bovine serum albumin (manufactured by Sigma Aldrich) as a standard.
1-2. h-SERT Binding Assay
The [^3H] citalopram binding was measured according to the method disclosed in Owens M. J. et al., J. Pharm. […] The solution was reacted at room temperature for 60 minutes, and then quickly suction-filtered under reduced pressure through a glass fiber filter coated with 0.05% aq. polyethyleneimine. The glass fiber filter was washed twice with […] of the SERT buffer, placed in a plastic vial containing 4 mL of liquid scintillator (ACS-II, manufactured by Amersham) or Ecoscint A (manufactured by National Diagnostics), and the remaining radioactivity on the filter paper was assayed with a liquid scintillation counter.

Compound	Ki [1] [nM]	Test Ex. 3: 5-HT2C receptor agonistic action [2] [%]	Ki [3] [nM]
CNCc1cc(OCc2cc(F)ccc2F)n(CC(C)(C)C)n1 [Example 258, 1-{5-[(2,5-difluorobenzyl)oxy]-1-(2,2-dimethylpropyl)-1H-pyrazol-3-yl}-N-methylmethanamine]	16	−118	0.66
CNCc1cc(OCc2cc(F)ccc2F)n(CCC(C)C)n1 [Example 269, 1-{5-[(2,5-difluorobenzyl)oxy]-1-(3-methylbutyl)-1H-pyrazol-3-yl}-N-methylmethanamine]	6.7	−77	0.59
CNCc1cc(OCc2cc(Cl)ccc2F)n(CC(C)(C)C)n1 [Example 259, 1-{5-[(5-chloro-2-fluorobenzyl)oxy]-1-(2,2-dimethylpropyl)-1H-pyrazol-3-yl}-N-methylmethanamine]	6.2	–	2.4
CNCc1cc(OCc2cc(Cl)ccc2F)n(CC2CC2)n1 [Example 131, 1-{5-[(5-chloro-2-fluorobenzyl)oxy]-1-(cyclopropylmethyl)-1H-pyrazol-3-yl}-N-methylmethanamine]	10	−70	3.7
CNCc1cc(OCc2cc(F)ccc2F)n(CCC(C)(C)C)n1 [Example 266, 1-{5-[(2,5-difluorobenzyl)oxy]-1-(3,3-dimethylbutyl)-1H-pyrazol-3-yl}-N-methylmethanamine]	4.5	–	0.69
CNCc1cc(OCc2cc(Cl)ccc2F)n(CCC(C)(C)OC)n1 [Example 275, 1-{5-[(5-chloro-2-fluorobenzyl)oxy]-1-(3-methoxy-3-methylbutyl)-1H-pyrazol-3-yl}-N-methylmethanamine]	11	–	22
CNCc1cc(OCc2cc(Cl)ccc2F)n(CC(C)C)n1 [Example 256, 1-{5-[(5-chloro-2-fluorobenzyl)oxy]-1-(2-methylpropyl)-1H-pyrazol-3-yl}-N-methylmethanamine]	12	–	1.6
CNC(C)c1cc(OCc2cc(F)ccc2F)n(CCC2CCCC2)n1 (stereo not shown) [Example 315, 1-{1-(2-cyclopentylethyl)-5-[(2,5-difluorobenzyl)oxy]-1H-pyrazol-3-yl}-N-methylethanamine]	3.6	–	11

— patent publication US10183913B2, “Pyrazole compound” (Sumitomo Dainippon Pharma Co., Ltd., priority 2010, dated 2019)
